Results from patent publication US20060242739A1, “Plant nucleotide-sugar pyrophosphatase/phosphodiesterase (nppase), method of obtaining same and use of same in the production of assay devices and in the production of transgenic plants” (Universidad Publica De Navarra, priority 2002, published 2006).

Molecular target: T1, NPPase from barley leaves (Hordeum vulgare, UniProt Q687E1)
T1 sequence (Q687E1 19-368): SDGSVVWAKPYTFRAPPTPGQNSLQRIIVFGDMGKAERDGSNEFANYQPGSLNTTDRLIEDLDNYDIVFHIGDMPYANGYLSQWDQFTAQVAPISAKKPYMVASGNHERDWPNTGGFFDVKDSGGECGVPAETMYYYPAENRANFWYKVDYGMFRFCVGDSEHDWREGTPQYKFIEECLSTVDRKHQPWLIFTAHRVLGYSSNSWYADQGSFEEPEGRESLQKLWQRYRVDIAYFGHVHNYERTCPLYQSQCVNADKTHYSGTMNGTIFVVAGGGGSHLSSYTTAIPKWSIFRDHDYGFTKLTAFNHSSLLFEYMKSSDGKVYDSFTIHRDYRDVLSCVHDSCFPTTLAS
Experiment: Enzymatic test of soluble NPPase from barley leaves: kinetic parameters, substrate specificity, effectors

In the case of `Nc1ncnc2c1ncn2[C@@H]1O[C@H](COP(=O)(O)OP(=O)(O)OP(=O)(O)O)[C@@H](O)[C@H]1O` [ATP], the Vmax (Vmax in % in relation to ADPG, NPPase from barley leaves) is reported as 40% and the “effect on NPPase activity (inhibition)” value (qualitative) is reported as “inhibited”.
